# Assay results: PubChem BioAssay
# The chains behind the UniProt entries cited, without tags or fusion partners. Where a name states a change or a piece, a line headed by the entry shows the natural chain unless it says otherwise.
# UniProt Q04721: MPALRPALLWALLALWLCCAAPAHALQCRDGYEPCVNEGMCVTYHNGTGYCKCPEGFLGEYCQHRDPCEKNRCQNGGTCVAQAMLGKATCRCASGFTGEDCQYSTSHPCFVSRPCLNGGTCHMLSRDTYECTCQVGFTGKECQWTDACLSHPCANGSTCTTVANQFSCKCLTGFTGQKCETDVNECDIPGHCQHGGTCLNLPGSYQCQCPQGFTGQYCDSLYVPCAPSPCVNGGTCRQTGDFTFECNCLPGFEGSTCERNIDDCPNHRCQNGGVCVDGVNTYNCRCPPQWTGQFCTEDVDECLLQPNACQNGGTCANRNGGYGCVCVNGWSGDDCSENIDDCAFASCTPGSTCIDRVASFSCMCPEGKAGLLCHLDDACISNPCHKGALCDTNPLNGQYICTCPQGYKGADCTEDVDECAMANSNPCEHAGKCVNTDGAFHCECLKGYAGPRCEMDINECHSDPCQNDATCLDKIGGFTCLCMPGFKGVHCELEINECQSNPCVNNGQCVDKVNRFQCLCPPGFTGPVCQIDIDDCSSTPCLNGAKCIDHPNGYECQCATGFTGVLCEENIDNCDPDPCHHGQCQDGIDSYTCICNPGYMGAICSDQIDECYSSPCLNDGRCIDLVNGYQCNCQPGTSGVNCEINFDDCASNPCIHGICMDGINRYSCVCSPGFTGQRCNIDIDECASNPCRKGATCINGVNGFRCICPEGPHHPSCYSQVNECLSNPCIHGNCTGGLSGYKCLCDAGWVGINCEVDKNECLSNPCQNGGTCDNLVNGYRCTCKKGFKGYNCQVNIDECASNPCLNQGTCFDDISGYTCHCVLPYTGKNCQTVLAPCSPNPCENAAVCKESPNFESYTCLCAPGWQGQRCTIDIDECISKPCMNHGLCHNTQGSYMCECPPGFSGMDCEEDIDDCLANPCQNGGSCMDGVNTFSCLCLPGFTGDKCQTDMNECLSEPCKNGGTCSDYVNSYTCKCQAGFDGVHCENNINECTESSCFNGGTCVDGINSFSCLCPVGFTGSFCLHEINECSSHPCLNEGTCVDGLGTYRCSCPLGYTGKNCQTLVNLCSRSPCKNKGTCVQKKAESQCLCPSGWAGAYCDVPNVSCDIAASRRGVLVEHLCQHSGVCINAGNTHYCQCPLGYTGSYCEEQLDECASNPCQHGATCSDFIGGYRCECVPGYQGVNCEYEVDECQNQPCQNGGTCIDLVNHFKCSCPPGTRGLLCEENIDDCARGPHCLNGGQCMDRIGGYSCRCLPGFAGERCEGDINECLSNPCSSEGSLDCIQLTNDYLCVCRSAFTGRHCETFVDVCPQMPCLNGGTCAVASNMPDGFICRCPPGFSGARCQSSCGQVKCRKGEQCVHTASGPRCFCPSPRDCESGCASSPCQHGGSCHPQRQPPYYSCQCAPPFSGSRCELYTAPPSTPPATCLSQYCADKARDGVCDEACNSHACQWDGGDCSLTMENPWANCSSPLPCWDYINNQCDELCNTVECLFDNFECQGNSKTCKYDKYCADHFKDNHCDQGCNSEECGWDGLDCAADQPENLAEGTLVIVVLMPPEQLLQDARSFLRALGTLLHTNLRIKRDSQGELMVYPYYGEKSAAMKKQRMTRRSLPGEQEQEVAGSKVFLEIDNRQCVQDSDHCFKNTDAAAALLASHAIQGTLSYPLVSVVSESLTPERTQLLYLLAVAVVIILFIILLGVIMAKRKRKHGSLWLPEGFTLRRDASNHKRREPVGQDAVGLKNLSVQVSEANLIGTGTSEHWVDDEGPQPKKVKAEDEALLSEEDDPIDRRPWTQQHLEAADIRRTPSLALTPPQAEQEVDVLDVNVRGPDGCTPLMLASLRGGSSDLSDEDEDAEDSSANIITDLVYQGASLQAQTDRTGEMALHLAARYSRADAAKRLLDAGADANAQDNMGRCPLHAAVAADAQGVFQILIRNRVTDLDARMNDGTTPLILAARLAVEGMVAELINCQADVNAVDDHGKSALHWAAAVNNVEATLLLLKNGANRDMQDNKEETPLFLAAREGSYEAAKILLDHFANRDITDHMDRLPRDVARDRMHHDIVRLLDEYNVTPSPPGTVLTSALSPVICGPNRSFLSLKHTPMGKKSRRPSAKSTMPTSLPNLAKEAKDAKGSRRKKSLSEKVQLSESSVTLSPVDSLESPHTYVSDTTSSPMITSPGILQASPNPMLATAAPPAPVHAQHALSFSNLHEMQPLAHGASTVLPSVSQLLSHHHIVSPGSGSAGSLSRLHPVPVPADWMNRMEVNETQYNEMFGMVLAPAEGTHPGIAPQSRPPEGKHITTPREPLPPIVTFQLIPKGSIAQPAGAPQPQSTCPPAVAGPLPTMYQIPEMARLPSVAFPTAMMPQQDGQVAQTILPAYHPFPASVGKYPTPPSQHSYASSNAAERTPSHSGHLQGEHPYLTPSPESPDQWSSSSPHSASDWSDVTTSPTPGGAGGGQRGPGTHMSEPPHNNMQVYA
# UniProt Q02297: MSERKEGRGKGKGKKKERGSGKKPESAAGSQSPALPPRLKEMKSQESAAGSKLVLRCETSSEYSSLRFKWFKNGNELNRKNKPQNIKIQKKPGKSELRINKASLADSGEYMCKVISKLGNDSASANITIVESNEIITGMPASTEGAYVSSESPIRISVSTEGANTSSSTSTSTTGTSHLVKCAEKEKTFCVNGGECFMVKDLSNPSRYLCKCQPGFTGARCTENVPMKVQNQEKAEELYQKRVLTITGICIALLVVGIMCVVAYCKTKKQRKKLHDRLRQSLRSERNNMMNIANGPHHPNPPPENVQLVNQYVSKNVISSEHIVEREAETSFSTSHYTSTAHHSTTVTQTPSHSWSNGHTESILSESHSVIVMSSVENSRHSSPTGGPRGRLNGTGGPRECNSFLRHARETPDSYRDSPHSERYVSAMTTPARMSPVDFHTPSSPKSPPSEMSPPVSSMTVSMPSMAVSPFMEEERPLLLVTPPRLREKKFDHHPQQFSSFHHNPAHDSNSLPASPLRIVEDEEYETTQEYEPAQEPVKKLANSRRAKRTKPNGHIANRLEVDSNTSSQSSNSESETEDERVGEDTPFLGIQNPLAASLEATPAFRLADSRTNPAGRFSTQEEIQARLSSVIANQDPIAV
# UniProt Q8NFQ8: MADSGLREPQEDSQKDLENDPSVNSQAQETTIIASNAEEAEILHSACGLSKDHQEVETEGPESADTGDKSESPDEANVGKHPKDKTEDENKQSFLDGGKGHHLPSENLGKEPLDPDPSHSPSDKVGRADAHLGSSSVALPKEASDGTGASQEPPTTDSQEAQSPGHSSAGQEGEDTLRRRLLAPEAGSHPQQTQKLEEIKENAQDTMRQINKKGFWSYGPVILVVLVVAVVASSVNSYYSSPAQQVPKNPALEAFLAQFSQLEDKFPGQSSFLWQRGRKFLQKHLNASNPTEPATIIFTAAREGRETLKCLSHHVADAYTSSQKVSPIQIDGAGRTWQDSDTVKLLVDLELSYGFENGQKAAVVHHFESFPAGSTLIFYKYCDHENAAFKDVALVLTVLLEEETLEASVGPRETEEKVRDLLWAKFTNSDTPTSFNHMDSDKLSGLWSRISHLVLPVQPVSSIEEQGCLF
# UniProt Q9UM47, whole entry, looked up: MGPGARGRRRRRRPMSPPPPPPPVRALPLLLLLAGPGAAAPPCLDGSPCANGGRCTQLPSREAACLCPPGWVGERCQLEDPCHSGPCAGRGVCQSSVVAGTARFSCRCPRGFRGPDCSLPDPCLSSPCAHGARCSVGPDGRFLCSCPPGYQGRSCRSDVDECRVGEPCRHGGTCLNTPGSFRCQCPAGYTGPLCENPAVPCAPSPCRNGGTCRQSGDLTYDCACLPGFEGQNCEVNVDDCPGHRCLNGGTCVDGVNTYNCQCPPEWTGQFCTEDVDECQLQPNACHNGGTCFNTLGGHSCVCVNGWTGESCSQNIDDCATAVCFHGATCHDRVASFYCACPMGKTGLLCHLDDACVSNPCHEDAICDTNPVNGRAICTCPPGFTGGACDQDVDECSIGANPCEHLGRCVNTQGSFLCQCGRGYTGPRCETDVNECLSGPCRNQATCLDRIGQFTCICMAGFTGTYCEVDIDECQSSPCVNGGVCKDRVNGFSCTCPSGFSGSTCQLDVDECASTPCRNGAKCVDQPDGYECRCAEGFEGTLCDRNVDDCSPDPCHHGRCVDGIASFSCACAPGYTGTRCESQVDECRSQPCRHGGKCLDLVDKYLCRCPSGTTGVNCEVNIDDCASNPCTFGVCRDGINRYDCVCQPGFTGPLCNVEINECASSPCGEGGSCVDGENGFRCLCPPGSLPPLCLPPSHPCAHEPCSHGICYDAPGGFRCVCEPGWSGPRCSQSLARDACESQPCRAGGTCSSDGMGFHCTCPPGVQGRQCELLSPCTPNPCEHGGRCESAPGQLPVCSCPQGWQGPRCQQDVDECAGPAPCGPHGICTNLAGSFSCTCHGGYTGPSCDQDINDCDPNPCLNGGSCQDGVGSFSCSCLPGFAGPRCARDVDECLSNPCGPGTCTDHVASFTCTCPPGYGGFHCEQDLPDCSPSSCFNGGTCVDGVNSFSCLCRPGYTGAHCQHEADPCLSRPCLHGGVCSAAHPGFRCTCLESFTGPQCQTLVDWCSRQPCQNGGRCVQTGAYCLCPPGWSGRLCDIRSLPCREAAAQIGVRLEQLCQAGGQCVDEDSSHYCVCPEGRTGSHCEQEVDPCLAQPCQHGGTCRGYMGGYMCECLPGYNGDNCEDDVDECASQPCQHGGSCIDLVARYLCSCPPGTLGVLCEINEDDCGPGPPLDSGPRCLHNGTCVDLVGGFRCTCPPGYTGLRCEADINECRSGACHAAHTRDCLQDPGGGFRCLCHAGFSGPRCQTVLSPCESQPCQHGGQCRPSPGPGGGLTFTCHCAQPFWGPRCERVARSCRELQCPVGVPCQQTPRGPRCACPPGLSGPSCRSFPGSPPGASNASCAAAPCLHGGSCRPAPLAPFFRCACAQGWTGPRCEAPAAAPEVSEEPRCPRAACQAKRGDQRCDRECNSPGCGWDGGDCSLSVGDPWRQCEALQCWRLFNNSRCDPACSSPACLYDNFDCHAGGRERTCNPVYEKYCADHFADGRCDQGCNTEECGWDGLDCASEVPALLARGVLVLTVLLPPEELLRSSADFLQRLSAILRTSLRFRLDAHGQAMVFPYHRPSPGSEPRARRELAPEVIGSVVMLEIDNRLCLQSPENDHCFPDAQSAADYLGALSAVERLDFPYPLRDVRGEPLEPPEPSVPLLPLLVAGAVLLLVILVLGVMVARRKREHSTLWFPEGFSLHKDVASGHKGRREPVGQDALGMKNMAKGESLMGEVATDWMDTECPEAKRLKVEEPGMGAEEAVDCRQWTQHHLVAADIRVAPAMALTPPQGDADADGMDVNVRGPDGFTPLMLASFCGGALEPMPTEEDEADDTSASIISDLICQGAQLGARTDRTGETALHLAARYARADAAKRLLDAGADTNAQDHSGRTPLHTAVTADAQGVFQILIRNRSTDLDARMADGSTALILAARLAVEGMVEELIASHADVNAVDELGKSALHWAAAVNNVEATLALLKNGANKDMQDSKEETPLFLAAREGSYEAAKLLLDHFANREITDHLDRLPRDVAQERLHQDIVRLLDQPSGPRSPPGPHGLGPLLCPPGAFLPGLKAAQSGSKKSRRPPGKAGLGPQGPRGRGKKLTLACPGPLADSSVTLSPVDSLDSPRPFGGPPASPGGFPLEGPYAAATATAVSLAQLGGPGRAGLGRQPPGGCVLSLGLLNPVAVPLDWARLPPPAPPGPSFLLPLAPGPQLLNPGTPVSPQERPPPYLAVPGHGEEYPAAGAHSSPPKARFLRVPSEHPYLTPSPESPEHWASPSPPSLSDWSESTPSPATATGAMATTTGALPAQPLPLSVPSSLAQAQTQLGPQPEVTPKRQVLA
# Only a part is listed here, and it is no random draw. Activity calls are given as the source filed them.
# Assays:
# [1] = binders of probe aFSTL3 on microarray, primary screen, stem cell growth factor project, biochemical, small-molecule microarray, fluorescence 635/667 (AID 1064); details: higher = more signal;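 also: measures binding of the biotinylated anti-FSTL3 antibody to printed compounds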
# [2] = binders from COS7 lysate, DM2A8 probe, primary screen, torsin A project, cell lysate, small-molecule microarray, fluorescence 635/667 (AID 1065); details: higher = more signal, COS7 lysate expressing mutant human TOR1A
# [3] = binders of probe aFGF2 on microarray, primary screen, stem cell growth factor project, biochemical, small-molecule microarray, fluorescence 635/667 (AID 1067); details: higher = more signal;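 also: measures binding of biotinylated aFGF2 protein to printed compounds on slides; z-score merges feature fluorescence and signal-to-noise across triplicate slides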
# [4] = binders of probe aFGF10 on microarray, primary screen, stem cell growth factor project, biochemical, small-molecule microarray, fluorescence 635/667 (AID 1071); details: higher = more signal;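 also: score merges 667 nm spot intensity and signal to noise from triplicate slides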
# [5] = biological target: Neurogenic locus notch homolog protein 2 (Homo sapiens) (UniProt Q04721); assay: Notch2 binders on small-molecule microarrays, primary screen, biochemical, small-molecule microarray, 635 nm fluorescence, stem cell growth factors (AID 1073); details: Notch2 binding, higher = more signal
# [6] = biological target: Pro-neuregulin-1, membrane-bound isoform (Homo sapiens) (UniProt Q02297); assay: NRG1 binders on small-molecule microarrays, primary screen, psychiatric disease protein project, biochemical, small-molecule microarray, fluorescence 635/667 (AID 1075); details: NRG1 binding, 635 nm fluorescence, higher = more signal;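 also: score combines 667 nm spot fluorescence with signal to noise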
# [7] = system: Neuregulin-1 EGF-like domain; assay: binders of neuregulin-1 EGF-like domain, primary screen, biochemical, small-molecule microarray, 635 nm fluorescence (AID 1081); details: small-molecule microarray binding, higher = more signal;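 also: binding of the protein to compounds printed on small-molecule microarray slides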
# [8] = FRG1 promoter luciferase signal modulators, primary screen, FRG1 inhibition for FSHD, cell-based, C2C12 myotubes, firefly/Renilla luciferase, luminescence (AID 1084); details: higher = more signal, called active from +8 up or from −8 down
# [9] = binders of probe aFST on microarray, primary screen, stem cell growth factor project, biochemical, small-molecule microarray, fluorescence 635/667 (AID 1086); details: higher = more signal;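 also: score merges 667 nm fluorescence with signal-to-noise of each printed compound spot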
# [10] = binders of probe aHhip on microarray, primary screen, stem cell growth factor project, biochemical, small-molecule microarray, fluorescence 635/667 (AID 1087); details: higher = more signal;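 also: score merges spot fluorescence at 667nm with spot signal to noise ratio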
# [11] = system: PRMT1 (protein arginine N-methyltransferase 1); assay: PRMT1 binders on small-molecule microarrays, primary screen, biochemical, small-molecule microarray, 635 nm fluorescence (AID 1088); details: small-molecule microarray binding, higher = more signal;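 also: binding of Prmt1 protein to compounds spotted on small-molecule microarray slides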
# [12] = yeast growth modulation, basal conditions, primary screen, YJM789 clinical isolate, OD600, 24 h (AID 1089);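 also: growth of clinical yeast isolate S. cerevisiae YJM 789 seeded 1000 cells per well; test concentration not given here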; details: S. cerevisiae YJM789 growth, higher = more signal, called active from +8 up or from −8 down
# [13] = biological target: Torsin-1A-interacting protein 2 (Homo sapiens) (UniProt Q8NFQ8); assay: LULL1 binders on small-molecule microarray, primary screen, cell lysate, human LULL1 lysate, 635/667 nm fluorescence (AID 1092); details: hLULL1 lysate binding, 635 nm fluorescence, higher = more signal;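 also: probe is lysate of COS7 cells overexpressing human LULL1; score merges per-feature 667 nm fluorescence with signal-to-noise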
# [14] = small-molecule microarray binders of probe aLefty2, primary screen, biochemical, biotinylated probe, 635/667 nm fluorescence (AID 1094); details: higher = more signal;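 also: score merges spot fluorescence near 667 nm with spot signal-to-noise ratio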
# [15] = system: Noggin (protein binding on small-molecule microarray); assay: Noggin binders on small-molecule microarray, primary screen, biochemical, 635/667 nm fluorescence (AID 1095); details: 635 nm fluorescence, higher = more signal;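 also: score merges 667 nm feature fluorescence with signal to noise over triplicate slides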
# [16] = biological target: Neurogenic locus notch homolog protein 3 (Homo sapiens) (UniProt Q9UM47); assay: NOTCH3 binders on small-molecule microarray, primary screen, biochemical, 635/667 nm fluorescence (AID 1096); details: NOTCH3 binding, 635 nm fluorescence, higher = more signal
# [17] = small-molecule microarray binders of probe aEGFR, primary screen, biochemical, biotinylated probe, 635/667 nm fluorescence (AID 1097); details: higher = more signal;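 also: probe is a biotinylated anti-EGFR antibody binding compounds printed on slides; score combines fluorescence near 667 nm and signal to noise of each spot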
# [18] = small-molecule microarray binders of probe aDKK1, primary screen, biochemical, biotinylated probe, 635/667 nm fluorescence (AID 1099); details: higher = more signal;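 also: score merges 667nm spot fluorescence with signal to noise across triplicate slides; reference of the scale not given here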
# [19] = small-molecule microarray binders of probe aCHRDL2, primary screen, biochemical, biotinylated probe, 635/667 nm fluorescence (AID 1100); details: higher = more signal
# [20] = splicing luciferase reporter signal modulators, primary screen, spliceosome inhibition project, cell-based, HEK293, splice +/- reporter (AID 1101); details: luminescence, 24 h, higher = more signal, called active from +8 up or from −8 down;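 also: HEK293 cells carrying a splicing-competent luciferase reporter gene; test concentration not given here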
Structure (SMILES),composite z-score [1],composite z-score [2],composite z-score [3],composite z-score [4],composite z-score [5],composite z-score [6],composite z-score [7],z-score [8],composite z-score [9],composite z-score [10],composite z-score [11],z-score [12],composite z-score [13],composite z-score [14],composite z-score [15],composite z-score [16],composite z-score [17],composite z-score [18],composite z-score [19],z-score [20]
O=P(/N=C1/CC(CCCO)=CC(c2ccc(CN3CCCC3)cc2)N1Cc1sc2ccccc2c1Cl)(Oc1ccccc1)Oc1ccccc1 (stereo not given),0.125,0.0246,-0.0238,0.0491,-0.209,2.15,0.83,inactive: 0.349,0.821,0.0373,0.126,inactive: -5.16,2.62,-0.149,-0.178,0.0311,-0.0797,0.253,0.282,inactive: -0.241
O=P(/N=C1/CC(c2ccc(CO)cc2)=CC(c2cccs2)N1Cc1cccc(OC(F)(F)F)c1)(Oc1ccccc1)Oc1ccccc1 (stereo not given),0.0205,0.25,-0.0945,0.356,1.4,2.02,1.08,inactive: -4.41,0.836,-0.179,0.992,inactive: -1.14,3.04,0.149,0.155,0.726,0.0267,0.488,0.899,inactive: -0.385
COP(=O)(/N=C1/CC(CCCO)=CC(C)N1Cc1cccc(OC(F)(F)F)c1)OC (stereo not given),-0.144,0.886,-0.0416,0.356,0.215,1.57,0.337,inactive: -1.63,0.686,0.245,0.0444,inactive: -1.18,1.71,0.145,0.315,0.234,0.09,0.642,0.667,inactive: -1.4
O=P(/N=C1/CC(CCCO)=CC(c2ccc(CN3CCCC3)cc2)N1Cc1cc2c(cc1Br)OCO2)(Oc1ccccc1)Oc1ccccc1 (stereo not given),-0.377,-0.0922,-0.163,0.3,0.116,2.33,0.35,inactive: -0.787,0.133,-0.0296,0.854,inactive: -2.39,2.52,-0.0982,-0.762,0.21,-0.096,-0.0436,0.444,inactive: 0.445
COP(=O)(/N=C1/CC(CCCO)=CC(C2CC2)N1C)OC (stereo not given),-0.489,0.418,-0.0963,0.0096,0.216,0.109,0.0686,inactive: -1.32,0.155,-0.476,0.0908,inactive: -1.03,1.27,-0.188,0.278,-0.628,-0.0831,-0.291,-0.118,inactive: -1.6
COP(=O)(/N=C1/CC(CCCO)=CC(c2ccc(CN3CCCC3)cc2)N1C)OC (stereo not given),0.143,0.0238,0.0204,0.0696,-0.238,0.293,-0.579,inactive: -1.17,0.667,-0.161,0.0079,inactive: -1.12,1.08,0.288,0.177,-0.654,0.154,0.864,0.794,inactive: -1.1
CN1/C(=N\P(=O)(Oc2ccccc2)Oc2ccccc2)CC(CCCO)=CC1C1CC1 (stereo not given),0.419,1.87,-0.0468,0.446,1.21,2.33,0.688,inactive: -1.46,0.36,0.184,1.07,inactive: -1.27,2.21,0.146,-0.203,0.252,0.356,0.863,0.645,inactive: -0.584
O=P(/N=C1/CC(c2ccc(CO)cc2)=CC(C2CC2)N1Cc1sc2ccccc2c1Cl)(Oc1ccccc1)Oc1ccccc1 (stereo not given),-0.279,0.291,-0.0125,1.16,1.34,1.7,1.24,inactive: -1.06,0.566,0.0373,1.54,inactive: -1.92,2.76,0.0802,1.26,1.1,0.047,-0.0058,0.233,inactive: -0.524
COP(=O)(/N=C1/CC(CCCO)=CC(c2cccs2)N1C)OC (stereo not given),1.42,0.35,0.252,0.309,-0.185,1.25,1,inactive: -0.193,1.19,0.568,0.282,inactive: 0.297,2.53,0.728,1.43,0.643,0.696,1.73,0.962,inactive: -1.51
COP(=O)(/N=C1/CC(CCCO)=CC(c2ccc(CN3CCCC3)cc2)N1Cc1cc2c(cc1Br)OCO2)OC (stereo not given),0.822,0.451,0.0192,0.659,0.0945,0.571,-0.0554,inactive: -1.48,0.714,-0.242,0.408,inactive: -1.95,0.477,0.595,1.57,-0.188,0.286,0.643,1,inactive: -1.66
O=P(/N=C1/CC(CCCO)=CC(C2CC2)N1Cc1cc2c(cc1Br)OCO2)(Oc1ccccc1)Oc1ccccc1 (stereo not given),0.303,-0.028,0.0036,0.0841,0.475,2.07,1.21,inactive: -0.697,0.17,-0.0373,-0.075,inactive: -4.91,3.15,0.365,-0.237,0.32,-0.0828,0.164,0.867,inactive: 0.101
CN1/C(=N\P(=O)(Oc2ccccc2)Oc2ccccc2)CC(CCCO)=CC1c1cccs1 (stereo not given),0.899,0.386,0.0732,0.0631,-0.0682,1.06,0.793,inactive: -0.0662,0.333,0.0587,-0.0606,inactive: 0.329,1.71,0.167,0.57,0.454,-0.0117,0.577,0.711,inactive: 0.139
COP(=O)(/N=C1/CC(CCCO)=CC(C2CC2)N1Cc1cc2c(cc1Br)OCO2)OC (stereo not given),0.247,0.851,0.0338,0.327,0.17,1.74,0.523,inactive: -1.31,0.123,-0.161,0.385,inactive: -1.76,1.34,0.23,0.347,-0.0817,0.201,0.809,0.757,inactive: -0.491
CN1/C(=N\P(=O)(Oc2ccccc2)Oc2ccccc2)CC(c2ccc(CO)cc2)=CC1C1CC1 (stereo not given),-0.831,1.61,-0.242,0.0993,0.727,2,1.33,inactive: -3.86,-0.424,-0.304,1.29,inactive: 0.93,3.12,-0.258,-0.0778,0.631,-0.339,-0.336,-0.364,inactive: -0.985
O=P(/N=C1/CC(c2ccc(CO)cc2)=CC(C2CC2)N1Cc1cc2c(cc1Br)OCO2)(Oc1ccccc1)Oc1ccccc1 (stereo not given),-0.134,1.24,0.0418,0.89,1.38,1.99,1.37,inactive: -3.18,0.55,0.829,1.54,inactive: -1.64,3.06,0.427,0.119,1.11,0.163,0.999,0.689,inactive: 0.411
